Assays:
JAK3 [1] = biological target: T1, JAK3 (Homo sapiens (Human), UniProt P52333); assay: Enzyme assay (Assay Example^a 1), JAK3; type: biochemical
JAK2 [2] = biological target: T2, JAK2 (Homo sapiens (Human), UniProt O60674); assay: Enzyme assay (Assay Example^a 1), JAK2; type: biochemical
Tyk2 [3] = biological target: T3, Tyk2 (Homo sapiens (Human), UniProt P29597); assay: Enzyme assay (Assay Example^a 1), Tyk2; type: biochemical
JAK1 [4] = biological target: T4, JAK1 (Homo sapiens (Human), UniProt P23458); assay: Enzyme assay (Assay Example^a 1), JAK1; type: biochemical
Tyk2 [5] = biological target: T3, Tyk2; assay: Tyk2 enzyme assay (Assay Example^b 1)
JAK2 [6] = biological target: T2, JAK2; assay: JAK2 enzyme assay (Assay Example^b 1)
JAK1 [7] = biological target: T4, JAK1; assay: JAK1 enzyme assay (Assay Example^b 1)
JAK3 [8] = biological target: T1, JAK3; assay: JAK3 enzyme assay (Assay Example^b 1); conditions: ATP 100 μM
[9] = ATP 100 μM, Table^a 154, read-out: IC50 (μM) TYK2
[10] = ATP 100 μM, Table^a 154, read-out: IC50 (μM) JAK1
[11] = IC50 (μM) TYK2, Table^b 80, ATP 100 μM
[12] = IC50 (μM) JAK2, Table^b 80, ATP 100 μM
[13] = IC50 (μM) JAK1, Table^b 80, ATP 100 μM
[14] = ATP 100 μM, read-out: IC50 (μM) TYK2
[15] = IC50 (μM) TYK2, Table^b 79, ATP 100 μM
[16] = IC50 (μM) JAK1, Table^b 78, ATP 100 μM

The chains behind the UniProt entries cited, without tags or fusion partners. Where a name states a change or a piece, a line headed by the entry shows the natural chain unless it says otherwise.
UniProt P52333: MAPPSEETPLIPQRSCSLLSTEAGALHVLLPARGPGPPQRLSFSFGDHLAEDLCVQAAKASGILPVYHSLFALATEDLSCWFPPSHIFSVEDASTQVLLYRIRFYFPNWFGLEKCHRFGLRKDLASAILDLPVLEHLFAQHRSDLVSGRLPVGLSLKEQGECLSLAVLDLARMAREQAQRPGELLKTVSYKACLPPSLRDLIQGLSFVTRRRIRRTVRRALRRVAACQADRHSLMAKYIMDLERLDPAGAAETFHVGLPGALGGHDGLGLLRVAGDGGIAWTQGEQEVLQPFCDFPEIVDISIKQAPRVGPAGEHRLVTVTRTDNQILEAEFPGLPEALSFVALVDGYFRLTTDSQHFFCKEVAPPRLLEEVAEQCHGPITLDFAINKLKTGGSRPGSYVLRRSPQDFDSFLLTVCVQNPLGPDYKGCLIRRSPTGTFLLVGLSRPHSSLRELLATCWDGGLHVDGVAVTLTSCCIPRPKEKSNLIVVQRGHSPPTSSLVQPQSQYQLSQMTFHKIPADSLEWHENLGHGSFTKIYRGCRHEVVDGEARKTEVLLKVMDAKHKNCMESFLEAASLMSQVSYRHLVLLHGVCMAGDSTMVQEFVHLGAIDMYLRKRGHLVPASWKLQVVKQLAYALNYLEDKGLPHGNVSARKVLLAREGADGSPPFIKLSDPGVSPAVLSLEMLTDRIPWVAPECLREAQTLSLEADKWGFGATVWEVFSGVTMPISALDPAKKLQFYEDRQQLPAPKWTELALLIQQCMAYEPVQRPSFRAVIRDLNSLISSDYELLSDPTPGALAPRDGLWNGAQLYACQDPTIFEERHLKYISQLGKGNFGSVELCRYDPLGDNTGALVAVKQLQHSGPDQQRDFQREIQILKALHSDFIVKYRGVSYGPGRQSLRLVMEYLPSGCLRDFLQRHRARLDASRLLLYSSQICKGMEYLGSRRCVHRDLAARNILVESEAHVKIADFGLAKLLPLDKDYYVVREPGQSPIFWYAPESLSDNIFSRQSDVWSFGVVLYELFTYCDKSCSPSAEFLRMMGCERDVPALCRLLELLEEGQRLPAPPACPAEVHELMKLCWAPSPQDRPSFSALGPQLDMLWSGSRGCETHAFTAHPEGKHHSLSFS
UniProt P29597: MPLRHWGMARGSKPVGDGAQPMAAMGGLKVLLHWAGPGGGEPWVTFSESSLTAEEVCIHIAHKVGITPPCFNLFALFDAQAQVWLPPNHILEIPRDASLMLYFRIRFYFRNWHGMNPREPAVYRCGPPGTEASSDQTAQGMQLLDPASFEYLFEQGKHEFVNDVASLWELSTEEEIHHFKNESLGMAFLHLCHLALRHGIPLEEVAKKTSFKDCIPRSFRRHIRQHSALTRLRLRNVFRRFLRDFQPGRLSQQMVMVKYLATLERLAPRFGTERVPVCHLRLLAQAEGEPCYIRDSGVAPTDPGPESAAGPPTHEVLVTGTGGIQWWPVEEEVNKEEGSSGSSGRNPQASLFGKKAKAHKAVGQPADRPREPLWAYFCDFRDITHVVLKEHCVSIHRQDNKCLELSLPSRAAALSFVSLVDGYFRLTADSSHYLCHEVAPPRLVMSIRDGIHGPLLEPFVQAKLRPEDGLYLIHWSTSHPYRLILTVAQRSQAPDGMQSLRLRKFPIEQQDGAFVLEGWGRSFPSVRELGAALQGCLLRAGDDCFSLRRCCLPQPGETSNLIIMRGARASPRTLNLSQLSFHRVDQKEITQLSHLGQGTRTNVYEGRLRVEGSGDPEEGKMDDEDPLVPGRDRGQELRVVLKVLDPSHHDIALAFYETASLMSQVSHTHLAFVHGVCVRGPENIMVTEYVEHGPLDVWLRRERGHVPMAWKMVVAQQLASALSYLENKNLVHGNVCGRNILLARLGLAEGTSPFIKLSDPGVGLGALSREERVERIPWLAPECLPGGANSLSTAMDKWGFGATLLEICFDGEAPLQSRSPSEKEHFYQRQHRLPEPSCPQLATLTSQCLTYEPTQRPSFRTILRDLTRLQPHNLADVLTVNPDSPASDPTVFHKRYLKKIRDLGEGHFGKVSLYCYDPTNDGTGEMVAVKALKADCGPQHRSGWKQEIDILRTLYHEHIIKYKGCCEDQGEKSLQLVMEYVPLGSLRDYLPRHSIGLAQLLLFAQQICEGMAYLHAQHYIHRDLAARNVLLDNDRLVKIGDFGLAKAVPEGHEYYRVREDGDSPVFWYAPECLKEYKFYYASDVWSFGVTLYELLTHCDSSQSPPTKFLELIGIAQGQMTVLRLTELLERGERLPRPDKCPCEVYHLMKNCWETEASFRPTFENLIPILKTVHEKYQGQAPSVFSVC

Compound: OC(CN[C@H]1CC[C@H](c2nnn3cnc4[nH]ccc4c23)CC1)c1ccccc1 (mixture of isomers) [202b, 2-{[trans-4-(7H-pyrrolo[3,2-e][1,2,3]triazolo[1,5-c]pyrimidin-1-yl)cyclohexyl]amino}-1-phenylethanol]
- IC50 (JAK3 [1]): 0.68 µM

Compound: c1cc(CN2CCC(c3nnn4cnc5[nH]ccc5c34)CC2)[nH]n1 [compound 151]
- IC50 (JAK2 [2]; read-out: IC50 (μM) JAK2): 0.072 µM
- IC50 (Tyk2 [3]; [9]): > 1 µM

Compound: OC[C@H]1CC[C@H](c2nnn3cnc4[nH]ccc4c23)CC1 [compound 141]
- IC50 (JAK2 [2]; read-out: IC50 (μM) JAK2): 0.014 µM
- IC50 (Tyk2 [3]; [9]): 0.038 µM
- IC50 (JAK1 [4]; [10]): 0.0028 µM

Compound: O=c1ccn(C2CCN(Cc3ccc(F)c(F)c3)CC2)c2c1cnc1[nH]ccc12 [compound 74]
- IC50 (Tyk2 [5]; [11]): 0.84 µM
- IC50 (JAK2 [6]; [12]): 0.069 µM
- IC50 (JAK1 [7]; [13]): 0.005 µM
- IC50 (JAK3 [8]; IC50 (μM) JAK3, Table^b 80): 0.86 µM

Compound: FC(F)(F)c1ccc(NC2CCC(c3nnn4cnc5[nH]ccc5c34)CC2)cc1 (stereo not drawn) [compound 128]
- IC50 (JAK3 [1]; read-out: IC50 (μM) JAK3): > 1 µM

Compound: OC[C@H]1CC[C@H](c2nnn3cnc4[nH]ccc4c23)CC1 [compound 10]
- IC50 (JAK3 [1]; read-out: IC50 (μM) JAK3): 0.19 µM
- IC50 (Tyk2 [3]; [14]): 0.037 µM

Compound: C[C@@H]1CCN(C(=O)Nc2ccccc2C(F)(F)F)C[C@@H]1n1ccc(=O)c2cnc3[nH]ccc3c21 (racemic) [compound 28]
- IC50 (Tyk2 [5]; [11]): 7.9 µM
- IC50 (JAK2 [6]; [12]): 2 µM
- IC50 (JAK1 [7]; [13]): 0.31 µM
- IC50 (JAK3 [8]; IC50 (μM) JAK3, Table^b 80): 2.3 µM

Compound: OC(CN[C@H]1CC[C@@H](c2nnn3cnc4[nH]ccc4c23)CC1)(c1ccccc1)C(F)(F)F (mixture of isomers) [196a, 3-{[cis-4-(7H-pyrrolo[3,2-e][1,2,3]triazolo[1,5-c]pyrimidin-1-yl)cyclohexyl]amino}-1,1,1-trifluoro-2-phenylpropan-2-ol]
- IC50 (JAK3 [1]): > 1 µM

Compound: Cc1cc(NC(=O)N2CCC(c3nnn4cnc5[nH]ccc5c34)CC2)sn1 [compound 31]
- IC50 (JAK2 [2]; read-out: IC50 (μM) JAK2): 0.21 µM
- IC50 (Tyk2 [3]; [9]): > 1 µM

Compound: O=C(c1ccc(C(F)(F)F)cc1)N1CCC(c2nnn3cnc4[nH]ccc4c23)CC1 [compound 58]
- IC50 (JAK2 [2]; read-out: IC50 (μM) JAK2): 0.82 µM
- IC50 (Tyk2 [3]; [9]): > 1 µM
- IC50 (JAK1 [4]; [10]): 0.18 µM

Compound: FC1(F)CCN(C[C@H]2CC[C@H](c3nnn4cnc5[nH]ccc5c34)CC2)CC1 [compound 97]
- IC50 (JAK2 [2]; read-out: IC50 (μM) JAK2): 0.1 µM
- IC50 (Tyk2 [3]; [9]): > 1 µM
- IC50 (JAK1 [4]; [10]): 0.021 µM

Compound: c1csc(CN2CCC(c3nnn4cnc5[nH]ccc5c34)CC2)c1 [compound 148]
- IC50 (JAK2 [2]; read-out: IC50 (μM) JAK2): 0.01 µM
- IC50 (Tyk2 [3]; [9]): 0.21 µM
- IC50 (JAK1 [4]; [10]): 0.0043 µM

Compound: O[C@H]1CC[C@H](c2nnn3cnc4[nH]ccc4c23)CC1 [compound 81]
- IC50 (JAK2 [2]; read-out: IC50 (μM) JAK2): 0.053 µM
- IC50 (Tyk2 [3]; [9]): 0.15 µM
- IC50 (JAK1 [4]; [10]): 0.012 µM

Compound: FC(F)(F)Oc1ccc(NC[C@H]2CC[C@H](c3nnn4cnc5[nH]ccc5c34)CC2)c(Cl)c1 [compound 115]
- IC50 (JAK2 [2]; read-out: IC50 (μM) JAK2): 0.4 µM
- IC50 (Tyk2 [3]; [9]): > 1 µM
- IC50 (JAK1 [4]; [10]): 0.13 µM

Compound: O=c1ccn(C2CCN(Cc3ccc(Cl)c(Cl)c3)CC2)c2c1cnc1[nH]ccc12 [compound 75]
- IC50 (Tyk2 [5]; [11]): > 1 µM
- IC50 (JAK2 [6]; [12]): 0.062 µM
- IC50 (JAK1 [7]; [13]): 0.0089 µM

Compound: C[C@@H]1CCN(C(=O)OCc2ccccc2)C[C@@H]1n1ccc(=O)c2cnc3[nH]ccc3c21 (racemic) [compound 35]
- IC50 (Tyk2 [5]; [11]): 0.99 µM
- IC50 (JAK2 [6]; [12]): 0.089 µM
- IC50 (JAK1 [7]; [13]): 0.018 µM

Compound: O=c1ccn(C2CCN(Cc3ccc(Cl)s3)CC2)c2c1cnc1[nH]ccc12 [compound 55]
- IC50 (Tyk2 [5]; [11]): 0.22 µM
- IC50 (JAK2 [6]; [12]): 0.02 µM
- IC50 (JAK1 [7]; [13]): 0.0012 µM

Compound: FC(F)(F)c1ccc(CN2CCCC(c3nnn4cnc5[nH]ccc5c34)C2)cc1 (racemic) [compound 23]
- IC50 (JAK3 [1]): > 1 µM
- IC50 (Tyk2 [3]; [9]): > 1 µM

Compound: Cc1noc(C)c1CN1CCC(c2nnn3cnc4[nH]ccc4c23)CC1 [compound 36]
- IC50 (JAK2 [2]; read-out: IC50 (μM) JAK2): 0.18 µM
- IC50 (Tyk2 [3]; [9]): > 1 µM
- IC50 (JAK1 [4]; [10]): 0.073 µM

Compound: OC[C@H]1CC[C@@H](c2nnn3cnc4[nH]ccc4c23)CC1 [compound 401, [cis-4-(7H-Pyrrolo[3,2-e][1,2,3]triazolo[1,5-c]pyrimidin-1-yl)cyclohexyl]methanol]
- IC50 (JAK3 [1]; read-out: IC50 (μM) JAK3): 0.36 µM
- IC50 (Tyk2 [3]; [14]): 0.15 µM

Compound: C[C@@H]1CCN(Cc2ccc(C(F)(F)F)cc2)C[C@@H]1n1ccc(=O)c2cnc3[nH]ccc3c21 (racemic) [compound 40]
- IC50 (Tyk2 [5]; IC50 (μM) TYK2): > 1 µM
- IC50 (JAK2 [6]; IC50 (μM) JAK2): 0.5 µM
- IC50 (JAK1 [7]; IC50 (μM) JAK1): 0.088 µM
- IC50 (JAK3 [8]; IC50 (μM) JAK3, Table^b 80): 0.26 µM

Compound: C[C@@H]1CCN(Cc2ccc(C#N)cc2)C[C@@H]1n1ccc(=O)c2cnc3[nH]ccc3c21 (racemic) [compound 44]
- IC50 (Tyk2 [5]; [11]): 0.84 µM
- IC50 (JAK2 [6]; [12]): 0.15 µM
- IC50 (JAK1 [7]; [13]): 0.014 µM
- IC50 (JAK3 [8]; IC50 (μM) JAK3, Table^b 80): 0.057 µM

Compound: OC(CN1CCC(c2nnn3cnc4[nH]ccc4c23)CC1)c1ccc(C(F)(F)F)cc1 (racemic) [compound 212, 2-[4-(7H-Pyrrolo[3,2-e][1,2,3]triazolo[1,5-c]pyrimidin-1-yl)piperidin-1-yl]-1-[4-(trifluoromethyl)phenyl]ethanol]
- IC50 (JAK3 [1]): 0.62 µM

Compound: c1cc2c(ncn3nnc(C4CCCNC4)c23)[nH]1 (racemic) [compound 15]
- IC50 (JAK3 [1]): 4.3 µM

Compound: N#CCC(=O)N1CCCC(c2ncn3cnc4[nH]ccc4c23)C1 (racemic) [compound 4]
- IC50 (JAK2 [2]): 0.026 µM
- IC50 (Tyk2 [3]): 0.23 µM
- IC50 (JAK1 [4]): 0.013 µM

Compound: c1cc2c(ncn3nnc(C4CCC(NCCN5CCOCC5)CC4)c23)[nH]1 (stereo not drawn) [compound 126]
- IC50 (JAK2 [2]; read-out: IC50 (μM) JAK2): > 1 µM
- IC50 (Tyk2 [3]; [9]): > 1 µM

Compound: O=c1ccn(C2CCN(Cc3ccc4[nH]ccc4c3)CC2)c2c1cnc1[nH]ccc12 [compound 85]
- IC50 (Tyk2 [5]; [11]): > 1 µM
- IC50 (JAK2 [6]; [12]): 0.68 µM
- IC50 (JAK1 [7]; [13]): 0.075 µM

Compound: Fc1ccc(CN2CCC(c3nnn4cnc5[nH]ccc5c34)CC2)cc1C(F)(F)F [compound 154]
- IC50 (JAK2 [2]; read-out: IC50 (μM) JAK2): 0.024 µM
- IC50 (Tyk2 [3]; [9]): 0.7 µM

Compound: OC(CN[C@H]1CC[C@H](c2nnn3cnc4[nH]ccc4c23)CC1)(c1ccccc1)C(F)(F)F (mixture of isomers) [196b, 3-{[trans-4-(7H-pyrrolo[3,2-e][1,2,3]triazolo[1,5-c]pyrimidin-1-yl)cyclohexyl]amino}-1,1,1-trifluoro-2-phenylpropan-2-ol]
- IC50 (JAK3 [1]): 0.29 µM

Compound: C[C@@H]1CCN(Cc2ccccc2)C[C@@H]1n1ccc(=O)c2cnc3[nH]ccc3c21 (racemic) [compound 4]
- IC50 (Tyk2 [5]; [15]): > 1 µM
- IC50 (JAK2 [6]; IC50 (μM) JAK2): 0.1 µM
- IC50 (JAK1 [7]; [16]): 0.03 µM

Compound: N#Cc1ccc(CNC[C@H]2CC[C@H](c3nnn4cnc5[nH]ccc5c34)CC2)cc1 [compound 93]
- IC50 (JAK2 [2]; read-out: IC50 (μM) JAK2): 0.061 µM
- IC50 (Tyk2 [3]; [9]): 0.0059 µM

Compound: C1=NCc2cnc3[nH]ccc3c2N1C1CCCCC1 [compound 19]
- IC50 (Tyk2 [5]; [15]): 1.5 µM
- IC50 (JAK2 [6]; IC50 (μM) JAK2, Table^b 79, ATP 100 μM): 1.3 µM
- IC50 (JAK1 [7]; [16]): 0.29 µM
- IC50 (JAK3 [8]; IC50 (μM) JAK3, Table^b 78): 2.2 µM

Compound: OC(CNC[C@H]1CC[C@H](c2nnn3cnc4[nH]ccc4c23)CC1)c1ccccc1 (mixture of isomers) [compound 186, 2-({[trans-4-(7H-pyrrolo[3,2-e][1,2,3]triazolo[1,5-c]pyrimidin-1-yl)cyclohexyl]methyl}amino)-1-phenylethanol]
- IC50 (JAK3 [1]): 0.099 µM

Compound: c1ccc(CN2CCC(c3nnn4cnc5[nH]ccc5c34)CC2)cc1 [compound 32]
- IC50 (JAK2 [2]; read-out: IC50 (μM) JAK2): 0.036 µM
- IC50 (Tyk2 [3]; [9]): 0.99 µM

Compound: O=S(=O)(C[C@H]1CC[C@H](c2nnn3cnc4[nH]ccc4c23)CC1)c1ccccc1 [compound 364, 1-{trans-4-[(phenylsulfonyl)methyl]cyclohexyl}-7H-pyrrolo[3,2-e][1,2,3]triazolo[1,5-c]pyrimidine]
- IC50 (JAK3 [1]): 0.39 µM
- IC50 (Tyk2 [3]; [14]): 0.21 µM

Compound: c1ccc(CCNC2CCC(c3nnn4cnc5[nH]ccc5c34)CC2)cc1 (stereo not drawn) [compound 123]
- IC50 (JAK2 [2]; read-out: IC50 (μM) JAK2): 0.19 µM
- IC50 (JAK3 [1]; read-out: IC50 (μM) JAK3): 0.87 µM
- IC50 (Tyk2 [3]; [9]): 0.23 µM

Compound: C[C@@H]1CCN(C(=O)c2cccc(C(F)(F)F)c2)C[C@@H]1n1ccc(=O)c2cnc3[nH]ccc3c21 (racemic) [compound 31]
- IC50 (Tyk2 [5]; [11]): > 1 µM
- IC50 (JAK2 [6]; [12]): > 1 µM
- IC50 (JAK1 [7]; [13]): 0.24 µM

Compound: CCOC(=O)N1CC[C@@H](C)[C@@H](n2ccc(=O)c3cnc4[nH]ccc4c32)C1 (racemic) [compound 27]
- IC50 (Tyk2 [5]; IC50 (μM) TYK2): 0.43 µM
- IC50 (JAK2 [6]; IC50 (μM) JAK2): 0.04 µM
- IC50 (JAK1 [7]; IC50 (μM) JAK1): 0.018 µM
- IC50 (JAK3 [8]; IC50 (μM) JAK3, Table^b 80): 0.042 µM

Source: US9216999B2, “Substituted pyrrolo[2,3-h][1,6]naphthyridines and compositions thereof as JAK inhibitors” (priority 2011, dated 2015)
